Key:
[1] = tested on: aPTT of pooled human plasma; assay: aPTT human plasma clotting assay (MLA Electra 800 coagulation timer); assay type: biochemical
[2] = design: species or system Sprague-Dawley rats; details: rat, in vivo
Experimental: One mg of antidote was administered as a short intravenous infusion over five minutes to four Sprague-Dawley rats. Serial plasma samples were collected and analyzed for antidote concentration using an enzyme linked immunosorption assay (ELISA, Enzyme Research Laboratory, Cat #: FX-EIA). Plasma concentration-time profiles of the antidote was described by a two compartment model. […] If immediate and near complete reversal of anticoagulation has to be achieved in a patient, based on rat experiments (Examples 18, 19, 20 and 22) the ratio of r-Antidote concentration to circulating fXa inhibitor concentration is expected to be targeted at around 2. Thus, to immediately maintain antidote plasma concentration above that of a fXa inhibitor, the distribution half-life is expected to have a much bigger impact than the terminal half-life on the human dose selection during an overdose treatment.

[3] = tested on: blood loss due to enoxaparin; assay type: in vivo, Sprague-Dawley rats; details: enoxaparin 4.5 mg/kg IV bolus
Experimental: The effect of r-Antidote on reversal of blood loss due to enoxaparin anticoagulation was tested in Sprague-Dawley rats. Specifically, rat tail transection blood loss model for restoration of hemostasis was employed. The enoxaparin was dosed by IV bolus (4.5 mg/kg). The r-Antidote was administered as two doses: 1) a 2 milligram bolus and then infused at a rate of 2 mg/hour for a total of 15 minutes; and 2) a 4 milligram bolus and then infused at a rate of 4 mg/hour for a total of 15 minutes. Blood loss reversal was also tested using the vehicle. Immediately after the bolus injection of the r-Antidote was complete and the infusion started, the tip of the rat's tail was transected with a scalpel blade and placed into a vial containing physiological saline at 37° C. The tail was allowed to bleed for 15 minutes. The resulting blood volume was determined by lysis of red blood cells, measuring the hemoglobin concentration spectrophotometrically and estimating the blood volume by comparison against a standard curve. Decreased blood loss correlated with both r-Antidote plasma concentrations (r^2=0.80) and a reduction of anti-fXa units (r^2=0.89). The results are provided in FIG. 38 (AD refers to the r-Antidote).
The anti-fXa units and rfXa antidote concentration refer to the levels obtained at the 15 minute time point—just prior to tail transection.

[4] = tested on: clot formation in human platelet poor plasma; assay: Clotting prolongation assay, 96-well plate format (OD405 turbidity); assay type: biochemical
Experimental: Two clotting assay formats were used to test the effects of factor Xa inhibitors and the antidote on clotting prolongation. In the first format, a 96-well plate was used to measure multiple samples at the same time. In the second assay format, aPTT was measured with a conventional coagulation instrument (MLA Electra 800 automatic coagulation timer).
In the 96-well plate format method, human platelet poor plasma or platelet rich plasma was prepared similarly as procedures in Example 2. 75-100 μL plasma was recalcified with CaCl2), incubated at 37° C. for 3 minutes and clot formation was initiated by adding tissue factor (Innovin, Dade Behring) or an aPTT reagent (Actin FS, Dade Behring). Change of OD405 was monitored continuously by a plate reader (Molecular Devices). Clotting time was defined as the time (second) when the half maximal value of absorbance (OD405 nm) change was reached. Factor Xa inhibitor and antidote, when present, were pre-incubated with plasma at room temperature for 20 minutes before initiation of the reaction.
In FIG. 18, the effect of r-Antidote to reverse the inhibitory effect of LMWH enoxaparin (Sanofi-Aventis) was tested by turbidity changes in human plasma. Enoxaparin (0-1.25 U/mL) was incubated at 22° C. for 20 min with or without 508 nM r-Antidote. Turbidity changes were measured according to procedures described in Example 3. 508 nM r-Antidote substantially corrected (>75%) the inhibitory effect of 0.3125-1.25 U/mL Enoxaparin.
A turbidity assay was used to test the effect of fXa inhibitors and r-Antidote on prolongation of clotting times. In this format, a 96-well plate was used to measure multiple samples at the same time. Human platelet poor plasma was prepared as in Example 2. […] Change of OD405 was monitored continuously by a plate reader (Molecular Devices). Clotting time was defined as the time (seconds) for reaching the half maximal value for change in absorbance (OD405 nm). […]

[5] = tested on: PT of pooled human plasma; assay: Prothrombin time (PT) human plasma clotting assay; assay type: biochemical; details: for correction of anticoagulation (PT): 1.9 μM recombinant antidote
[6] = 300 nM Betrixaban + 570 nM r-Antidote
[7] = 300 nM Betrixaban + 760 nM r-Antidote
[8] = 300 nM Betrixaban + […] r-Antidote
[9] = 400 nM Betrixaban + 380 nM rAntidote
[10] = 400 nM Betrixaban + 570 nM rAntidote
[11] = 400 nM Betrixaban + 760 nM rAntidote
[12] = 400 nM Betrixaban + 1520 nM rAntidote
[13] = 400 nM Betrixaban + […] rAntidote
[14] = 1 μM apixaban + 380 nM rAntidote
[15] = 1 μM apixaban + 760 nM rAntidote
[16] = 1 μM apixaban + 1.52 μM rAntidote
[17] = […] apixaban + 1.52 μM rAntidote
[18] = […] apixaban + 1.90 μM rAntidote

B1: r-Antidote: fXa derivative lacking the 6-39 amino acid residues of SEQ ID NO. 3, expressed in CHO cells, after removal of the linker (SEQ ID NO. 13) (protein)
chain: ANSFLFWNKYKDGDQCETSPCQNQGKCKDGLGEYTCTCLEGFEGKNCELFTRKLCSLDNGDCDQFCHEEQNSVVCSCARGYTLADNGKACIPTGPYPCGKQTLERIVGGQECKDGECPWQALLINEENEGFCGGTILSEFYILTAAHCLYQAKRFKVRVGDRNTEQEEGGEAVHEVEVVIKHNRFTKETYDFDIAVLRLKTPITFRMNVAPACLPERDWAESTLMTQKTGIVSGFGRTHEKGRQSTRLKMLEVPYVDRNSCKLSSSFIITQNMFCAGYDTKQEDACQGDAGGPHVTRFKDTYFVTGIVSWGEGCARKGKYGIYTKVTAFLKWIDRSMKTRGLPKAKSHAPEVITSSPLK
% Correction of anticoagulation [1, 6]: 88%
Fold Change [1, 6]: 1.09
aPTT [1, 6]: 38.3 s
% Correction of anticoagulation [1, 7]: 88%
Fold Change [1, 7]: 1.09
aPTT [1, 7]: 38.2 s
% Correction of anticoagulation [1, 8]: 90%
Fold Change [1, 8]: 1.08
aPTT [1, 8]: 38.1 s
% Correction of anticoagulation [1, 9]: 61%
Fold Change [1, 9]: 1.34
aPTT [1, 9]: 47.1 s
% Correction of anticoagulation [1, 10]: 85%
Fold Change [1, 10]: 1.13
aPTT [1, 10]: 39.9 s
% Correction of anticoagulation [1, 11]: 85%
Fold Change [1, 11]: 1.13
aPTT [1, 11]: 39.9 s
% Correction of anticoagulation [1, 12]: 86%
Fold Change [1, 12]: 1.12
aPTT [1, 12]: 39.4 s
% Correction of anticoagulation [1, 13]: 92%
Fold Change [1, 13]: 1.07
aPTT [1, 13]: 37.8 s
Fold Change ([1]; 1520 nM rAntidote alone): 1.10
aPTT ([1]; 1520 nM rAntidote alone): 38.8 s
Volume of distribution, Vc [2]: 13 mL
Systemic clearance ([2]; iv): 0.099 L/h/kg
distribution half-life ([2]; iv): 0.317 h
terminal half-life ([2]; iv): 10 h
volume of distribution ([2]; iv): 0.27 L/kg
blood loss due to enoxaparin, reduced to ([3]; r-Antidote 2 mg bolus + 2 mg/hr infusion): 42%
reversal of blood loss due to enoxaparin ([3]; r-Antidote 4 mg bolus + 4 mg/hr infusion): completely reversed
correction of inhibitory effect of enoxaparin ([4]; 508 nM r-Antidote, enoxaparin 0.3125-1.25 U/mL): > 75%
correction of aPTT (reversal of enoxaparin) ([4]; 4 uM r-Antidote, enoxaparin 1 fXa Unit/ml): near complete correction
Fold Change [5, 14]: 1.09
PT [5, 14]: 15.3 s
Fold Change [5, 15]: 1.06
PT [5, 15]: 14.9 s
Fold Change [5, 16]: 1.01
PT [5, 16]: 14.2 s
Fold Change ([5]; 1 μM apixaban + […] rAntidote): 1.01
PT ([5]; 1 μM apixaban + […] rAntidote): 14.2 s
reversal of anticoagulant effect of rivaroxaban (PT) ([5]; 1 μM rivaroxaban + r-Antidote): dose-dependently and completely reversed
PT ([5]; 1.52 μM rAntidote alone): 14 s
PT ([5]; 1.90 μM rAntidote alone): 14.2 s
correction of anticoagulation (PT) ([5]; 1 μM rivaroxaban): 100%
correction of anticoagulation (PT) ([5]; […] apixaban): 97%
PT ([5]; 1.9 M r-Antidote alone): 14.2 s
Fold Change [5, 17]: 1.04
PT [5, 17]: 14.6 s
Fold Change [5, 18]: 1.01
PT [5, 18]: 14.3 s

Reference: US20250186563A1, “UNIT DOSE FORMULATION OF ANTIDOTES FOR FACTOR XA INHIBITORS AND METHODS OF USING THE SAME” (Alexion Pharmaceuticals, Inc., priority 2009, published 2025)
